The test system of this assay is Ba/F3 cells (IL-3 dependent murine pro-B cell line). In words: Proliferation assay (MTT), parental Ba/F3 cells. The settings on record: read-out: BaF3, 48 h, drug concentrations 0.005-10 μM.
In the case of `Fc1cc(Cn2ncc3c(Nc4ccc(OC(F)(F)F)cc4)ncnc32)ccc1C(F)(F)F`, the IC50 was 6.7 µM. The value for `Oc1cccc(Cn2ncc3c(Nc4ccc(OC(F)(F)F)cc4)ncnc32)c1` was 6.9 µM. For `FC(F)(F)Oc1ccc(Nc2ncnc3c2cnn3Cc2cccnc2)cc1`, the IC50 is 2.2 µM.

(Values after patent US9670214B2, “Small molecule myristate inhibitors of Bcr-abl and methods of use” (DANA-FARBER CANCER INSTITUTE, INC., priority 2007, dated 2017).)
